Test results from PMC5601738, “Facile total synthesis of lysicamine and the anticancer activities of the Ru^II, Rh^III, Mn^II and Zn^II complexes of lysicamine” (Oncotarget, 2017).

Tests used:
[1] = system: cell cycle regulatory proteins in HepG2 cells; assay: Western blot of cell cycle regulatory proteins; conditions: HepG2, 24 h, increasing concentrations
[2] = system: apoptosis associated proteins in HepG2 cells; assay: Western blot of apoptosis-related proteins; conditions: HepG2, 24 h, various concentrations

Substance: [Rh(LY-OH)Cl3CH3OH] [Complex 2]
- expression of Cdk2, p-Cdc25A, p53, p21 and p27 [1]: increased
- expression of Bax, Apaf-1 and cytochrome c [2]: increased
- expression of C-myc, Bcl-xl and Bcl-2 [2]: decreased
